Source: US6303751A, “Human metabotropic glutamate receptor and related DNA compounds” (Eli Lilly and Company, priority 1995, dated 2001)

By UniProt entry, the sequences of proteins in these tests, tags left out. Residues count along the entry.
UniProt Q13255, 19-1194 S593P/S993P: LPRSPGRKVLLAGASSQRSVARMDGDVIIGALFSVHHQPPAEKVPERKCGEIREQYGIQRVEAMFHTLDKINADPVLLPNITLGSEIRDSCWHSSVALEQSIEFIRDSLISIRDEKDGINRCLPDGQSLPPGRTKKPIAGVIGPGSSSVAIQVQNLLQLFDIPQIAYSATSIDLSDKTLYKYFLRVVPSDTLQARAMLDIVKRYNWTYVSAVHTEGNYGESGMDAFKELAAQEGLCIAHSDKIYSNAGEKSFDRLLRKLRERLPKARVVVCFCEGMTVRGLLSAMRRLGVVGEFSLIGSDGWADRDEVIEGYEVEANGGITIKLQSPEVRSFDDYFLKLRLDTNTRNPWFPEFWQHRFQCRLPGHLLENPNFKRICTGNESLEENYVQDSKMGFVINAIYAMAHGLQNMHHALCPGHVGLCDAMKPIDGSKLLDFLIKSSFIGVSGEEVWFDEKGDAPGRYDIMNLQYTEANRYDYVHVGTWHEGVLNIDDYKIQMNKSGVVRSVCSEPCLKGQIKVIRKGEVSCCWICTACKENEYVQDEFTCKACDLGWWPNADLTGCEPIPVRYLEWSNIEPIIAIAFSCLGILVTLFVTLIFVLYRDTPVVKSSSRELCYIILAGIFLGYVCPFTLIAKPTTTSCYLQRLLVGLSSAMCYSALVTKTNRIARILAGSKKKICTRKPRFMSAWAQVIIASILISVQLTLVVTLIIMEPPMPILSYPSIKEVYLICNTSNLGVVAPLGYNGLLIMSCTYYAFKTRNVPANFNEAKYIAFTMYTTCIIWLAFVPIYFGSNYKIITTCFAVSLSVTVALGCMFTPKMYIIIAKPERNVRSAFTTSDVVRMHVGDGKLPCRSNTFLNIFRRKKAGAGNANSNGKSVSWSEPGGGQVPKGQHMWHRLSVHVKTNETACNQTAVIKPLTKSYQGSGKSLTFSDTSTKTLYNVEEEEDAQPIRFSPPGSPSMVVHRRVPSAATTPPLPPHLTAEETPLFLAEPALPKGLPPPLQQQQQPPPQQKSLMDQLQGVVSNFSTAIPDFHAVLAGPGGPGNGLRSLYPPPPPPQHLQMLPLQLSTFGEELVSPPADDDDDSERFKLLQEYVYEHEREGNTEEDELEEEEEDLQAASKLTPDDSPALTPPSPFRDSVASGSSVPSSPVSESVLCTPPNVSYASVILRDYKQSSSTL

Molecular target: T1, HSmGluR1 receptor (human metabotropic glutamate receptor) expressed in Xenopus oocytes (Homo sapiens, UniProt Q13255)
T1 construct: RNA transcripts encoding the HSmGluR1 receptor were produced by enzymatic transcription from pRS117; expressed in transfected cells; host or cells: Xenopus laevis oocytes injected with in vitro transcribed RNA from pRS117
Test: Electrophysiological recording of HSmGluR1 receptor expressed in Xenopus oocytes
Type: cell-based

In the case of `N[C@@]1(C(=O)O)CC[C@@H](C(=O)O)C1` (relative stereo) [trans-ACPD, trans-1-amino-1,3-cyclopentane dicarboxylic acid], the EC50 is reported as 65 µM.
